Literature values as cited in patent US8338628B2, “Method of synthesizing alkylated bile acid derivatives” (City of Hope, priority 2007, dated 2012).

Target: T1, farnesoid X receptor (FXR) (Homo sapiens, UniProt Q96RI1)
T1 sequence (Q96RI1 1-486): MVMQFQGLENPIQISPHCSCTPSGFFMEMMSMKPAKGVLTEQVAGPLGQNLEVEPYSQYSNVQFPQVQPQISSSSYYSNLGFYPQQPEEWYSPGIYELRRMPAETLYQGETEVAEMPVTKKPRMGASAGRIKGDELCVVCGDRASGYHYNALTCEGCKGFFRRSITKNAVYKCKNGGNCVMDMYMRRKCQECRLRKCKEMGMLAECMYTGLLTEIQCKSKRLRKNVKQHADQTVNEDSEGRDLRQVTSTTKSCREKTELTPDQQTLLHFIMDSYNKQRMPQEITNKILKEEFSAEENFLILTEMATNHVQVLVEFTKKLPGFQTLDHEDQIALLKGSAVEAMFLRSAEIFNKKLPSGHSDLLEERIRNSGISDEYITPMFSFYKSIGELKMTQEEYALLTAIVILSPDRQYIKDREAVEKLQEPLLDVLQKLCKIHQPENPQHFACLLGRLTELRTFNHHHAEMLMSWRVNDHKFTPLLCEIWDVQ
Conditions: background statement

For `CC(C)c1onc(-c2c(Cl)cccc2Cl)c1COc1ccc(/C=C/c2cccc(C(=O)O)c2)c(Cl)c1` [GW4064], the “FXR activation (in words)” value is listed as “activates FXR”.
